Results from BindingDB's records for doi:10.1021/acsmedchemlett.1c00082 (Bristol Myers Squibb, 2021).

Assay: Antagonist activity at CCR2 in human THP1 cells assessed as reduction in MCP1-induced chemotaxis measured after 30 mins by calcein-AM dye based fluorescence assay

IC50: 20 nM
SMILES: CC(=O)N[C@@H]1C[C@H](NC(C)C)CC[C@@H]1N1CC[C@H](Nc2ncnc3ccc(C(F)(F)F)cc23)C1=O
